This passage reports Activity results from ChEMBL document CHEMBL1123122.

Calls of active or inactive are those of the source. The calls are words filed in the database; no cut-off is given here.

The species named for this experiment is Rattus norvegicus. Description: The compound was evaluated for the morphine-like behavioral effects. '--' indicates decrease in the locomotor activity.

Turning to `C=CCN1CC[C@]23c4c5ccc(O)c4O[C@H]2C(=O)CC[C@@]3(O)[C@H]1C5`, the result was Active.
